Assay results published in ChEMBL document CHEMBL5620411, “Perspectives and new aspects of histone deacetylase inhibitors in the therapy of CNS diseases” (Eur J Med Chem, 2023).

How the values were obtained:
in vivo [1] = conditions: C57BL/6, mouse, brain/plasma, ip, 20 mg/kg
in vivo [2] = conditions: C57BL/6, mouse, brain/plasma, ip, 20 mg/kg; remark: listed apart in the source

Structure (SMILES): O=C(NO)c1ccc(CN2CCCc3cc(Cl)ccc32)cc1
- Kp at 4 h (in vivo [1]): 4.54
- Kp at 1 h (in vivo [2]): 2.54
